The record followed here is patent US7045532B2 (Millennium Pharmaceuticals, Inc., priority 1999, dated 2006).

Protein sequences, listed by entry. Tags and fused reporters are not part of them. Residues count along the entry.
UniProt Q9BYF1, 18-739: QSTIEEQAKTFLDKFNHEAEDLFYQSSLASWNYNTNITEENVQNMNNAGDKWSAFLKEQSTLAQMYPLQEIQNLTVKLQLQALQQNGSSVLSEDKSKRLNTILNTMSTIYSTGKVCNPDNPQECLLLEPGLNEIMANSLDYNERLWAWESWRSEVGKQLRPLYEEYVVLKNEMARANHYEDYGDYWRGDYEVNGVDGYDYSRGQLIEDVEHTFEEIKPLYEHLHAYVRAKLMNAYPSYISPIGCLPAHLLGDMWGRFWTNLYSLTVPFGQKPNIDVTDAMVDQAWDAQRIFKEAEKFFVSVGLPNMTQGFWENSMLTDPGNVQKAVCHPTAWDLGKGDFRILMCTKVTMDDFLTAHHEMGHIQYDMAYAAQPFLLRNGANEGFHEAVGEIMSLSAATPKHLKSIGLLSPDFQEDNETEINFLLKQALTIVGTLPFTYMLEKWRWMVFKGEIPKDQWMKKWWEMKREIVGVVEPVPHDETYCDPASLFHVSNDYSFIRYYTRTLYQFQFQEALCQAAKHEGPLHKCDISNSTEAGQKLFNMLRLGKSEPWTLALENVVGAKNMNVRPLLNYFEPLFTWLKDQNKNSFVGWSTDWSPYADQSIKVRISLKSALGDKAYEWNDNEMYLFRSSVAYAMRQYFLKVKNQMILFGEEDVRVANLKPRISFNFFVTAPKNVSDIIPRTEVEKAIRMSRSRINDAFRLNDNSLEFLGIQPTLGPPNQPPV

Experiment [1] can be described thus: Effect on appetite: food consumption in ICR mice.
Experiment [2] deals with ACE-2 (Homo sapiens, UniProt Q9BYF1). The experiment can be described thus: Kinetic constants for ACE-2 hydrolysis of peptides (reversed phase LC). The format is biochemical. More on the design: made in house.

As for `CC(C)CC(N[C@@H](Cc1cncn1Cc1cc(Cl)cc(Cl)c1)C(=O)O)C(=O)O` (single isomer, unassigned) [HE, 2-[1-Carboxy-2-[3-(3,5-dichloro-benzyl)-3H-imidazol-4-yl]-ethylamino)4-methyl-pentanoic acid], the cumulative food consumption result in experiment [1] (100 mg/kg oral, one hour) was “about 2.22±0.13 g”; in experiment [1] (100 mg/kg oral, six hours) it was “about 5.38±0.41 g”; in experiment [1] (100 mg/kg oral, three hours), “about 4.06±0.27 g”.

For `CC(N)Cc1ccccc1` (centres unmarked) [amphetamine, reference compound], the cumulative food consumption entry in experiment [1] (3 mg/kg oral, three hours) is “about 1.39±0.07 g”. With “angiotensin II (1-8) (DRVYIHPF; listed as Homo sapiens) ["identified as preferred ACE-2 substrates"]”, in experiment [2], the “kcat/Km relative to angiotensin I (1-10)” value worked out at 500 fold.
